Test in all cases: native gel or EMSA; purified TTR (0.5 uM) incubated with human RBP (0-4 uM) at 4 °C for 2 h; free and RBP-bound TTR separated by native PAGE (10%), western blot with anti-TTR and ECL; Kd by Scatchard analysis assuming a 1:2 TTR:RBP complex; low TTR/RBP molar ratio
(In EMSA bound probe runs differently from free probe, usually more slowly.)

Assay [1] has as its target pigC/crocTTR (Crocodylus porosus TTR with the C-terminal sequence changed to that of S. scrofa TTR) (Crocodylus porosus | Sus scrofa) (UniProt O55245).
The target in assay [2] is pigC/huTTR (human TTR with the C-terminal sequence changed to that of Sus scrofa TTR) (human | Sus scrofa).
Assay [3] addresses xenoN/pigC/huTTR (human TTR with the N-terminal and C-terminal sequences changed to those of Xenopus laevis and S. scrofa, respectively) (Xenopus laevis | human | Sus scrofa) (UniProt B7ZS96).

What is called Kd is the concentration at which binding is half-saturated. Consider “Human retinol binding protein (RBP) (from UniProt P02753 19-201) (natural protein)”, for which the Kd in assay [1] was found to be 310 nM; in assay [2], 3200 nM; in assay [3], 1530 nM.

These data come from article PMC5715260.
